From publication PMC12077799, “Fragment-based drug discovery for transthyretin kinetic stabilisers using a novel capillary zone electrophoresis method” (PLOS One, 2025)

Target: TTR in undiluted normal human reference plasma (Homo sapiens, UniProt P02766)
Assay: 125I-T4 displacement assay in neat normal human plasma
Type: binding
Conditions: read-out: Mean 125I-T4 IC50 ± SD (N = 3), 4-parameter logistic fit

IC50: 256 µM
Structure (SMILES): O=C(O)c1ccc(-c2ccccc2)cc1
